Measurements reported in PubChem BioAssay AID435006 (Sanford-Burnham Center for Chemical Genomics, 2010).
This is a selection; strong and weak results do not stand in their true shares. The source made the active and inactive calls. No stated cut-off is given here; in the data, active means inhibition above about 48%; inactive means the rest.

test: NALP3 inhibitors retested in yeast, confirmation, luminescence, single concentration (AID 435006); settings: yeast expressing human NALP3, luminescence; at 10 µM; hits give high values

| Compound | inhibition |
| --- | --- |
| CC(C)(C)OC(=O)N1CCC(Nc2ccccc2)CC1 | inactive: 46.5% |
